pIC50: −log10 of the molar value. Like-named read-outs stand apart in the source and are kept apart here.
Biological target: T1, human NaV 1.2 (Homo sapiens, UniProt Q99250)
T1 construct: expressed in transfected cells; host or cells: CHO
Experiment: Electrophysiology, IonWorks Barracuda, NaV channel block in CHO cells
Assay type: cell-based
Details: Nav1.2, CHO cells, 5 min exposure, ambient temperature
Method: Effects on Human NaV 1.1, NaV 1.2, NaV1.3, NaV 1.4, NaV 1.5, NaV 1.6, NaV 1.7 and NaV 1.8/β3 Sodium Channels Expressed in Mammalian Cells
CHO cells were stably transfected with human ion channel cDNAs. Stable transfectants were selected by expression with the antibiotic-resistance gene(s) incorporated into the expression plasmid(s). Selection pressure was maintained by including selection antibiotics in the culture medium. CHO cells were cultured in Ham's F-12 supplemented with 10% fetal bovine serum, 100 U/mL penicillin G sodium, 100 μg/mL streptomycin sulfate and appropriate selection antibiotics. Before testing, cells in culture dishes were washed twice with Hank's Balanced Salt Solution (HB-PS) and treated with Accutase for approximately 20 minutes. Immediately before use in IonWorks Barracuda™, the cells were washed in HB-PS to remove the Accutase and re-suspended in HB-PS. All experiments were performed at ambient temperature. […] Duration of exposure to each test article concentration was five (5) minutes. Inhibition of NaV channels was measured using a stimulus voltage pattern. The pulse pattern was repeated before (baseline) and for five (5) minutes after compound addition. […]

Chains of the proteins cited; added tags and fusions are not shown.
UniProt Q99250, whole entry: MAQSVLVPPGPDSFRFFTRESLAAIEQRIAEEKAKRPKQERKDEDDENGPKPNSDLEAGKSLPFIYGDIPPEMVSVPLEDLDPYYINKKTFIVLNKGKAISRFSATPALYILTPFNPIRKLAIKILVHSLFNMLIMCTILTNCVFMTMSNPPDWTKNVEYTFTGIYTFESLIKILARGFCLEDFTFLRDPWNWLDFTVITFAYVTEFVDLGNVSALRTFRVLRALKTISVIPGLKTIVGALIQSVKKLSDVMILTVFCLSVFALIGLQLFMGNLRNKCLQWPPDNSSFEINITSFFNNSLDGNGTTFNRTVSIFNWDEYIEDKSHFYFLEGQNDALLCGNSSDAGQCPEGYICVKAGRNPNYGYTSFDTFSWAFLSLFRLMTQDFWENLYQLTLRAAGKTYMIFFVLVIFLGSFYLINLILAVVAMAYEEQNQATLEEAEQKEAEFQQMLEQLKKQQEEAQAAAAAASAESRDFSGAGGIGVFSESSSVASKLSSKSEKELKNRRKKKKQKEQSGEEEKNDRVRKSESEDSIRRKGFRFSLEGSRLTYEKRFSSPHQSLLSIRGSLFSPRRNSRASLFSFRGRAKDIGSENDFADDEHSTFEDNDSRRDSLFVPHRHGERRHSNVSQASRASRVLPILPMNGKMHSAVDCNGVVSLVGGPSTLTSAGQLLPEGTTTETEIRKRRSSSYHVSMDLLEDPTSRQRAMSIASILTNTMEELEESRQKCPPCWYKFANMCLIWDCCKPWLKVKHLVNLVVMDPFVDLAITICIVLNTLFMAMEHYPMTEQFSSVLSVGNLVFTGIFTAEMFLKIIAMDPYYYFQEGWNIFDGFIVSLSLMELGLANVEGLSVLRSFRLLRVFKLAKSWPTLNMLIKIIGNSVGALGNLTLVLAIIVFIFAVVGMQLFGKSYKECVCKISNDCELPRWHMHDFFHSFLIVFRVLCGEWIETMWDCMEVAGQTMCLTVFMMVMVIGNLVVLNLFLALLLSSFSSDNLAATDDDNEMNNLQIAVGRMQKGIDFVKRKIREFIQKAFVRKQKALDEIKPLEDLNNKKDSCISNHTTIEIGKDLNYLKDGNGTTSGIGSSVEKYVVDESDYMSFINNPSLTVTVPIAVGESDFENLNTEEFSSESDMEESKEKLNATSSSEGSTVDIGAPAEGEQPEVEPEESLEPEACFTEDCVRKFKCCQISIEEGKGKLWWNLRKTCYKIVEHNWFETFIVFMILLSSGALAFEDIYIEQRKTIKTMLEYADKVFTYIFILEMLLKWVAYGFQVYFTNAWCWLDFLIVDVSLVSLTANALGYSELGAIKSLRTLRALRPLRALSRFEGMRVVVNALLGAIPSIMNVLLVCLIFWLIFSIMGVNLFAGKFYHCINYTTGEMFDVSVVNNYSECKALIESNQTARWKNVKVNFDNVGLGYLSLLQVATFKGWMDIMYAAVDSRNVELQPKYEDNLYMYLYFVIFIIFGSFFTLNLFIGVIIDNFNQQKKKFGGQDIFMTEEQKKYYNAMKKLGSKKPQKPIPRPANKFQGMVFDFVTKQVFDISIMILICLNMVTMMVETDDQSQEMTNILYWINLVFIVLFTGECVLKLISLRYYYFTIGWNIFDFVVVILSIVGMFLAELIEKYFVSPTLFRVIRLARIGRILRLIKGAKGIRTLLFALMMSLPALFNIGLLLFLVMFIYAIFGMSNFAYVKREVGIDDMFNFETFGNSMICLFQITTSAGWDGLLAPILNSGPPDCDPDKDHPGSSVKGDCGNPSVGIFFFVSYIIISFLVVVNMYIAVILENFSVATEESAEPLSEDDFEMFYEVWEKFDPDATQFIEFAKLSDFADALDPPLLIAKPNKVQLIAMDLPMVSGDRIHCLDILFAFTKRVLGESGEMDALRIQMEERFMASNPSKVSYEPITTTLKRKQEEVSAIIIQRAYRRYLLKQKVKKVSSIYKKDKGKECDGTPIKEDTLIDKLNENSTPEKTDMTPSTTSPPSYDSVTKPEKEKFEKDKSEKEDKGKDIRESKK

SMILES: CCN(CC)CC(=O)Nc1c(C)cccc1C [Lidocaine, reference compound]
- pIC50 (read-out: IC50 TP1 (tonic)): 3.30
- pIC50 (read-out: IC50 TP2 (inactivated state)): 3.39

Reference: patent US10414728B2 (priority 2014, dated 2019)
